Measured values: patent US11046672B2, “Indolinones compounds and their use in the treatment of fibrotic diseases” (RESPIVERT LIMITED, priority 2015, dated 2021)

Sequences of proteins named here, by UniProt entry; tags and fusion partners are left off. Residues count along the entry.
UniProt P09619, 33-1106: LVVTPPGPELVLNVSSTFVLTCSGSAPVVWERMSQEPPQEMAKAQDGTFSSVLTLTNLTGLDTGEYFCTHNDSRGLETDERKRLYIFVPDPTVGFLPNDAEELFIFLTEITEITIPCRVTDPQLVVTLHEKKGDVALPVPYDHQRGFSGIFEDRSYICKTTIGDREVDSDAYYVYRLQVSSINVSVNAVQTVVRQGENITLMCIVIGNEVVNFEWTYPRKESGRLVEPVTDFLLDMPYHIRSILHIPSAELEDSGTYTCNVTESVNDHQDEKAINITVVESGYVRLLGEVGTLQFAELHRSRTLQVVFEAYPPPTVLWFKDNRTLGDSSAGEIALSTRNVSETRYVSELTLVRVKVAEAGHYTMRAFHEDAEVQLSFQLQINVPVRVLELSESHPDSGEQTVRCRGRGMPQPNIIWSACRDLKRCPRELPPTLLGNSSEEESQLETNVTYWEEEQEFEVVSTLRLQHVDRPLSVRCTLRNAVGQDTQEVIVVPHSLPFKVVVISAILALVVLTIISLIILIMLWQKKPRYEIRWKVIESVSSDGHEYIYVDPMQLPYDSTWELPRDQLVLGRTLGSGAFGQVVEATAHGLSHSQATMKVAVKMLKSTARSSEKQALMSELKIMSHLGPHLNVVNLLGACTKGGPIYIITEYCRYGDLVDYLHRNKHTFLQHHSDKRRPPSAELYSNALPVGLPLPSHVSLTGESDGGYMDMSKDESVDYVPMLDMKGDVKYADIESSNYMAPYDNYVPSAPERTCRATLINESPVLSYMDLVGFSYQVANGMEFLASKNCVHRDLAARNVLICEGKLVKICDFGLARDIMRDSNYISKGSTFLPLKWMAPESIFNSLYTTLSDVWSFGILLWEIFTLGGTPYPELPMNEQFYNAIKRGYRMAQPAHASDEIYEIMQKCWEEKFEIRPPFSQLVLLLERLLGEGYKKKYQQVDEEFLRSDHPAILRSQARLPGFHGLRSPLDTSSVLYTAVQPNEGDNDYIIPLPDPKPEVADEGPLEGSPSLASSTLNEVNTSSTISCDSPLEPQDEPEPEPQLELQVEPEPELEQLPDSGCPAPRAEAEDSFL

Target: PDGFRβ (Homo sapiens (Human), UniProt P09619)
Test: Duration of action (washout) against PDGF-BB induced phosphorylation of PDGFRβ in human fetal lung fibroblast cells
Type: cell-based
Details: MRC-5 cells, rhuPDGF-BB, experiments in Groups 1-4

% phos: percentage phosphorylation after wash-out relative to maximal phosphorylation (100%): 56.8%
SMILES: CNC(=O)CN1CCN(CCON(C)C(=O)c2ccc(N/C(=C3\C(=O)Nc4cc(C(=O)OC)c(C)cc43)c3ccccc3)cc2)CC1 [Example 9, (Z)-Methyl 5-methyl-3-(((4-(methyl(2-(4-(2-(methylamino)-2-oxoethyl)piperazin-1-yl)ethoxy)carbamoyl)phenyl)amino)(phenyl)methylene)-2-oxoindoline-6-carboxylate]
